scFv variants of Ab-14 (light chain) against a SARS-CoV-2 spike peptide

Source: Li et al. 2023 (doi:10.1038/s41467-023-39022-2), MIT Lincoln Laboratory and A-Alpha Bio; data file from the FLAb repository.

The target is the same throughout: PDVDLGDISGINAS, from the HR2 region of SARS-CoV-2 spike.

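Phage display of a naive human antibody library on the peptide gave the parent. These sequences belong to a second round, designed from the earlier measurements on random variants of the parent. Their group label is 14L_En_Gen (En: ensemble of fine-tuned language models; Gen: genetic algorithm). AlphaSeq pools MATa yeast showing the antibodies with MATalpha yeast showing the peptide. The frequency of each diploid, read from paired DNA barcodes, reflects how well the two displayed proteins bind. Each replicate has its own calibration line, from reference interactions of the BCL2 family. The assay was run in six technical replicates.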

The variants keep the heavy chain, the linker and the frameworks of Ab-14 (scFv order VH, a 15-residue (Gly4Ser)3 linker, VL).
VH: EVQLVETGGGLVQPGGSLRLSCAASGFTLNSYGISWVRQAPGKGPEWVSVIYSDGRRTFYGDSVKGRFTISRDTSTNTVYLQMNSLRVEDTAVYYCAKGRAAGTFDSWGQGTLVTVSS
VL: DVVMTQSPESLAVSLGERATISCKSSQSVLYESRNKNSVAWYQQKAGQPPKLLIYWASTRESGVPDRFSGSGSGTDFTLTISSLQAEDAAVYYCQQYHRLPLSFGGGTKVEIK

Each variant is given by its three light chain CDRs, as the data file delimits them; those of the parent are KSSQSVLYESRNKNSVA, WASTRES, QQYHRLPLS.
Values are log10 of the apparent Kd in nM; lower means stronger binding.
Replicates are averaged; those with no signal do not enter the mean.
"n.d." means that the variant was in the library but no mating with the target was seen in that replicate; the authors take this as a sign of poor binding, and no number exists.
The parent sequence was in this pool as ten entries: three were never detected, three once, and four in most replicates, with averages from 0.34 to 2.37.

| CDR-L1 | CDR-L2 | CDR-L3 | replicates, log10 nM | log10 Kd (nM), mean | empty controls |
|---|---|---|---|---|---|
| KLSMVTGHMSMSRNNVA | EMVTREP | QQYDRLPLS | 0.48 / 0.63 / 0.17 / 0.51 / 0.49 / 0.68 | 0.49 | 0 of 18 |
| HMSMLTLTGSRQRNSVA | QMTTREN | QQYDRLPLM | 0.88 / 0.24 / 0.20 / -0.07 / 0.48 / 0.40 | 0.35 | 1 of 18 (2.31) |
| MISQLYNMGSFAINSVA | QASQRCE | QQYDRLPLM | 1.34 / 0.88 / 1.05 / 1.12 / 0.73 / 1.16 | 1.05 | 0 of 18 |
| KLSFLTEMEHVNRNSVA | ELVTRMS | QQYNRLPLS | n.d. / n.d. / n.d. / n.d. / n.d. / n.d. | n.d. | 0 of 18 |
| IVSQLMIWGMHLKNSIA | EAQTRLN | QQYDRLPLM | n.d. / n.d. / n.d. / n.d. / 2.15 / 3.44 | 2.80 | 0 of 18 |
| TISQMTSLFSQTINNVA | EVSTREQ | QQYDRLPLV | 0.76 / 0.80 / 0.71 / 0.84 / 0.81 / 1.09 | 0.83 | 0 of 18 |
| MVSQLMLWGHLAKNSIA | EAQTRVN | QQYDRLPLF | 2.54 / 0.87 / 1.55 / 1.52 / 2.29 / 1.55 | 1.72 | 0 of 18 |
| HMSALTMLGMRQRNSVA | QMTTREN | QQYDRLPLA | 0.61 / 0.36 / 0.46 / 0.34 / 0.57 / 0.99 | 0.55 | 1 of 18 (3.07) |
| MVNNIMDHLSKQTNNVA | ETVTREE | QQYERLPLS | 1.04 / 0.95 / 0.55 / 1.21 / 0.60 / 1.30 | 0.94 | 1 of 18 (2.29) |
| TIGQTLMQGIRNRSNVA | EVSQRLN | QQYDRLPLA | 1.15 / 1.28 / 0.96 / 1.27 / 1.16 / 1.42 | 1.21 | 0 of 18 |
| TISQITSLFSQTINNVA | EVTTREA | QQYDRLPLT | n.d. / 2.69 / n.d. / n.d. / n.d. / n.d. | 2.69 | 0 of 18 |
| MISQMYNMGSFAINSVA | QASLRNE | QQYDRLPLI | 0.88 / 0.81 / 1.26 / 1.13 / 1.55 / 1.75 | 1.23 | 0 of 18 |
| NIGMTLNMLEHKQNNVA | DLVTREN | QQYHRLPLS | 0.85 / 0.42 / 0.57 / 0.90 / 0.89 / 0.60 | 0.71 | 0 of 18 |
| HMSMLTLMGMRQRNSVA | QMTTREN | QQYDRLPLA | 0.51 / n.d. / n.d. / 0.45 / 1.99 / 0.94 | 0.97 | 0 of 18 |
| MISQVMNTLTRHGNNVA | DLETRED | QQYFRLPLS | 1.46 / 1.27 / 1.08 / 1.06 / 0.90 / 1.10 | 1.14 | 0 of 18 |
| HITYGMMIAGRHSSSIA | QAETRAK | QQYDRLPLM | 0.84 / 0.48 / 0.71 / 0.88 / 0.84 / 0.70 | 0.74 | 0 of 18 |
| TISGVMTQMQHSKNNVA | EVSTRLD | QQYFRLPLE | 0.76 / 0.48 / 0.38 / 0.51 / 0.42 / 0.74 | 0.55 | 1 of 18 (2.48) |
| KIGMTLNTLMHQKNNVA | DLVEREN | QQYYRLPLS | 0.46 / -0.02 / 0.08 / 0.76 / 0.38 / 0.58 | 0.37 | 0 of 18 |
| KVYGAINFQSSAKSNIA | EESMRTK | QQYARLPLS | 0.57 / 0.01 / 0.10 / -0.07 / 0.02 / 0.24 | 0.15 | 1 of 18 (2.58) |
| SLGLVTMLEYAGRNNVA | NNSTREE | QQYDRLPLS | n.d. / 0.98 / 1.46 / n.d. / n.d. / 2.03 | 1.49 | 0 of 18 |
| KISMLINMTFEQSNNVA | EMATREQ | QQYNRLPLS | n.d. / 1.01 / 1.42 / 1.70 / 2.43 / 2.07 | 1.73 | 0 of 18 |
| MVSQLMLWGLHAKNSIA | EAVTRFN | QQYDRLPLF | n.d. / 2.49 / n.d. / n.d. / n.d. / n.d. | 2.49 | 0 of 18 |
| HITYGMMVAGRHHSSIA | QAEERAK | QQYDRLPLS | 1.58 / 0.57 / 0.86 / 1.08 / 0.62 / 0.93 | 0.94 | 0 of 18 |
| MISQIYNMGSFAINSVA | QASLRND | QQYDRLPLM | 2.02 / 1.30 / 1.76 / 1.28 / 0.77 / 2.12 | 1.54 | 0 of 18 |
| KLVQFMNRGTHHTSNIA | DAVNRID | QQYARLPLA | 0.35 / 0.01 / 0.34 / 0.28 / 0.36 / 0.49 | 0.31 | 0 of 18 |
| MMSQVWGMGQRHINNVA | QTSTREE | QQYDRLPLI | 0.31 / 0.26 / 0.23 / -0.15 / 0.10 / 0.21 | 0.16 | 3 of 18 (2.36) |
| MISEVMETLTRHGNNVA | DLAERED | QQYFRLPLS | 1.44 / 1.78 / 1.19 / 0.75 / 1.27 / 1.26 | 1.28 | 0 of 18 |
| KIGMTLNTLMHTKNNVA | DLVMREK | QQYHRLPLS | 0.37 / 0.28 / 1.06 / 0.24 / -0.06 / 0.38 | 0.38 | 0 of 18 |
| IVSQLMMWGMHAKNSIA | EAVTRYN | QQYDRLPLF | n.d. / n.d. / n.d. / n.d. / n.d. / n.d. | n.d. | 1 of 18 (2.59) |
| HITYGMQVMGRHSKSIA | QAETREK | QQYDRLPLV | 0.99 / 0.98 / 0.94 / 1.08 / 1.00 / 0.88 | 0.98 | 0 of 18 |
| HMSALTLGGMRARNSVA | QMTTREN | QQYDRLPLT | 1.58 / 1.09 / 0.60 / 0.77 / 0.94 / 0.97 | 0.99 | 0 of 18 |
| KLVNFMNRGTHHTSNIA | DAVNRLD | QQYYRLPLA | 0.73 / 0.71 / 0.63 / 0.59 / 0.30 / 0.77 | 0.62 | 0 of 18 |
| MISQLYNMGQFAINSVA | QASTRNE | QQYHRLPLM | 0.77 / 0.41 / 0.59 / 0.13 / 0.14 / 0.55 | 0.43 | 1 of 18 (1.98) |
| KISQMHRVGSTHSNSIA | EEATRSD | QQYHRLPLA | 1.12 / 2.47 / 1.13 / 1.45 / 2.26 / 2.86 | 1.88 | 0 of 18 |

2 of these entries, quoted again:

| CDR-L1 | CDR-L2 | CDR-L3 | replicates, log10 nM | log10 Kd (nM), mean | empty controls |
|---|---|---|---|---|---|
| KISQMHRVGSTHSNSIA | EEATRSD | QQYHRLPLA | 1.12 / 2.47 / 1.13 / 1.45 / 2.26 / 2.86 | 1.88 | 0 of 18 |
| KIGMTLNTLMHQKNNVA | DLVEREN | QQYYRLPLS | 0.46 / -0.02 / 0.08 / 0.76 / 0.38 / 0.58 | 0.37 | 0 of 18 |

As a blank, each scFv also met three strains without target: over all light chain designs, 4% of these pairings were detected, typically at 2.64 and seldom below 1.59. For each scFv, signals with the empty controls are counted beside the result, with their mean in brackets.
The authors' rule: three or more of the six replicates give a measured affinity, fewer mean a poor binder.
A sequence measured in both rounds can read differently, since the two assays cover different ranges.